This assay deals with MMP-2/MMP-9 (Homo sapiens) (UniProt P08253+P14780). As to the kind of experiment: Selectivity ratio of Ki for human recombinant MMP-9 catalytic domain to Ki for human recombinant MMP-2.

Sequences of proteins named here, by UniProt entry; tags and fusion partners are left off. A change or cut given only in a name is not applied to a line headed by its entry.
UniProt P08253: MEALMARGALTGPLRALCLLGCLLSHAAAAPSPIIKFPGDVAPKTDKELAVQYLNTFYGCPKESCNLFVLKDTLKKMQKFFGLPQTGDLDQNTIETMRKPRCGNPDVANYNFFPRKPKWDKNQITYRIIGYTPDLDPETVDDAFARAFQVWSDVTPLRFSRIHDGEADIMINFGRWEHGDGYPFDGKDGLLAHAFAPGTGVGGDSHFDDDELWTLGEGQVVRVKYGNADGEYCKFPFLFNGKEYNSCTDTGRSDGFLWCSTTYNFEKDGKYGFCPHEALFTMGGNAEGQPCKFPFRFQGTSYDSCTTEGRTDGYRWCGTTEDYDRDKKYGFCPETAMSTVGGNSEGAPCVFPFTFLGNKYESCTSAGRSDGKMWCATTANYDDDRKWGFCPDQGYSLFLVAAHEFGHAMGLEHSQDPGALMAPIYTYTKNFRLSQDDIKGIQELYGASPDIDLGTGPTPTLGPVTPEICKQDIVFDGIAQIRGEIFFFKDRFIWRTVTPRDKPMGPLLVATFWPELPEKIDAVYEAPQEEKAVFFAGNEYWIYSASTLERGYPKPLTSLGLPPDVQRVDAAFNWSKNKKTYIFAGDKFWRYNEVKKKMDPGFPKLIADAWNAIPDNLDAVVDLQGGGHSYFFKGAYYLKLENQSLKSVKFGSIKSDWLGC
UniProt P14780: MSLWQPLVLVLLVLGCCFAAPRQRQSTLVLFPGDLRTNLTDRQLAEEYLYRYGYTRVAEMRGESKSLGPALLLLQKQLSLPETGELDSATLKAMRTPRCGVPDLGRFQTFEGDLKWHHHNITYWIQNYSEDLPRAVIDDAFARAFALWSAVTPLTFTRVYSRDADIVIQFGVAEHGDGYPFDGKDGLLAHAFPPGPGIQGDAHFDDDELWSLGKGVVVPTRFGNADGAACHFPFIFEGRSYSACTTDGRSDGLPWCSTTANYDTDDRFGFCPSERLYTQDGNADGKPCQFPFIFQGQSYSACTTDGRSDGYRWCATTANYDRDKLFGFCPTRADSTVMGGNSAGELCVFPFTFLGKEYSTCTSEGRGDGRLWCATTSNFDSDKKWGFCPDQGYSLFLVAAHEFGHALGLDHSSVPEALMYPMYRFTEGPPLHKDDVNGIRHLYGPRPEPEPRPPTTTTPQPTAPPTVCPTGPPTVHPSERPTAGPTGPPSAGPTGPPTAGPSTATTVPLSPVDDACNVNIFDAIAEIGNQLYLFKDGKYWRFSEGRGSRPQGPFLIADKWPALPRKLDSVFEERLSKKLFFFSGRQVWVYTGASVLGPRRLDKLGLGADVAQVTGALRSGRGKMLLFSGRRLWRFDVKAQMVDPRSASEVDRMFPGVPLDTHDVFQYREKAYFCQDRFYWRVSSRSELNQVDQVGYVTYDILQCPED

As for `CCOC(=O)Nc1ccc(Oc2ccc(S(=O)(=O)CC3CS3)cc2)cc1` (stereo unspecified), the Ratio Ki is 2.

The record behind these values is ChEMBL document CHEMBL2440018 (J Med Chem, 2013).
